Earlier results in publication PMC10091413, “Modeling the Orthosteric Binding Site of the G Protein-Coupled Odorant Receptor OR5K1” (Journal of Chemical Information and Modeling, 2023).

Target: T1, OR5K1 (Homo sapiens, UniProt Q8NHB7)
T1 construct: The protein-coding region of human OR5K1 (NM_001004736.3); IL-6-HaloTag (from expression plasmid pFN210A) (N); expressed in transfected cells; host or cells: HEK-293
T1 sequence (Q8NHB7 1-308): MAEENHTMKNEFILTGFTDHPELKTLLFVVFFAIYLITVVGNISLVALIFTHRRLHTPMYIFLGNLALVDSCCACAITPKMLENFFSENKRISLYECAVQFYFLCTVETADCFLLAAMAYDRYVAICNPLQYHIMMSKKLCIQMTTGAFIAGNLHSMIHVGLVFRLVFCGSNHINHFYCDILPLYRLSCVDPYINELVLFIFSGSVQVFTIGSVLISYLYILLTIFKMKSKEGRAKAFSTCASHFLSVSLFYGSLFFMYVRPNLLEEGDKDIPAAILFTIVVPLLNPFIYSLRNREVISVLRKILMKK
Parameters: method as in PMID 34047404
Conditions: OR5K1 agonist activity; data retrieved from the literature; cited from earlier work

In the case of COc1nccnc1CC(C)C [Compound 8, 2-Isobutyl-3-methoxypyrazine], the EC50 is listed as 178 ± 24.9 µM.
